Earlier results as cited in patent publication US20260174880A1, “ELECTROPHILIC REACTIVE LINKERS FOR LABELING OF POLYPEPTIDES AND METHODS OF USE THEREOF” (The Brigham and Women's Hospital, Inc., priority 2023, published 2026).

Amino acid sequences for entries named in this document (tags omitted).
UniProt P00519, whole entry: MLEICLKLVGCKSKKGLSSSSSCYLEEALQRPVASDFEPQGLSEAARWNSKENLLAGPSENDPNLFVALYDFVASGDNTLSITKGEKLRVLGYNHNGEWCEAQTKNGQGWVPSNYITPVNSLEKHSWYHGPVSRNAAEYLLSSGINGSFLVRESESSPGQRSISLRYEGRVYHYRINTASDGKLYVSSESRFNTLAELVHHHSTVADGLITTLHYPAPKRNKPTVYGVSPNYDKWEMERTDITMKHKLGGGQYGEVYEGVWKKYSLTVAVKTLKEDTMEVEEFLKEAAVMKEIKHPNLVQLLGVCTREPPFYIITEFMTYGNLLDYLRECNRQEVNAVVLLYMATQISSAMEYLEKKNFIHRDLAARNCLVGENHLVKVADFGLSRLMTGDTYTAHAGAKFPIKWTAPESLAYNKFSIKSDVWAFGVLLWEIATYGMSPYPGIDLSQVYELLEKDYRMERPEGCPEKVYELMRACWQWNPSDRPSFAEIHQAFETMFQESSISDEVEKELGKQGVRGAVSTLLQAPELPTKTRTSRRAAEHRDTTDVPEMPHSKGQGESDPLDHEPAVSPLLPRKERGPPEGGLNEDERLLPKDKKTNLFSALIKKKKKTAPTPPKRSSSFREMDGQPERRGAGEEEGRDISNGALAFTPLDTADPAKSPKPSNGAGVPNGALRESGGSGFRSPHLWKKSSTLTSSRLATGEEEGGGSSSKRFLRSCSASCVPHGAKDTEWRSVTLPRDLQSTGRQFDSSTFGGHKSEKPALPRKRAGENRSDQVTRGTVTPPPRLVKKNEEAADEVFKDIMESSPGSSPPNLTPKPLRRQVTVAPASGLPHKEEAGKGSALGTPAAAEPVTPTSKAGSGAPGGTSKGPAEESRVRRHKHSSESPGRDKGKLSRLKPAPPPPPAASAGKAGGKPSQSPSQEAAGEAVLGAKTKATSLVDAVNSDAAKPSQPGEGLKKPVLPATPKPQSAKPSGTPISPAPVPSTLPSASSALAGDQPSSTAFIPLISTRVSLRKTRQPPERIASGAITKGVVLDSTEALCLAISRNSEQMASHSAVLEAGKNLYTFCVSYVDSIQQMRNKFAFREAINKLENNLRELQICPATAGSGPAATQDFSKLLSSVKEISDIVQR

Molecular target: ABL proto-oncogene 1, non-receptor tyrosine kinase (Homo sapiens, UniProt P00519)

For `O=C(NCCO)c1cccc(-c2cc(Nc3ccc(OC(F)(F)F)cc3)ncn2)c1` [GNF-5], which pIC50 is on record?
Its pIC50 is 6.7.
